Data on 4 compounds can be found in BindingDB's records for 28626522.

The chains behind the UniProt entries cited, without tags or fusion partners. Residues count along the entry.
UniProt O42275, 24-633 limits assumed: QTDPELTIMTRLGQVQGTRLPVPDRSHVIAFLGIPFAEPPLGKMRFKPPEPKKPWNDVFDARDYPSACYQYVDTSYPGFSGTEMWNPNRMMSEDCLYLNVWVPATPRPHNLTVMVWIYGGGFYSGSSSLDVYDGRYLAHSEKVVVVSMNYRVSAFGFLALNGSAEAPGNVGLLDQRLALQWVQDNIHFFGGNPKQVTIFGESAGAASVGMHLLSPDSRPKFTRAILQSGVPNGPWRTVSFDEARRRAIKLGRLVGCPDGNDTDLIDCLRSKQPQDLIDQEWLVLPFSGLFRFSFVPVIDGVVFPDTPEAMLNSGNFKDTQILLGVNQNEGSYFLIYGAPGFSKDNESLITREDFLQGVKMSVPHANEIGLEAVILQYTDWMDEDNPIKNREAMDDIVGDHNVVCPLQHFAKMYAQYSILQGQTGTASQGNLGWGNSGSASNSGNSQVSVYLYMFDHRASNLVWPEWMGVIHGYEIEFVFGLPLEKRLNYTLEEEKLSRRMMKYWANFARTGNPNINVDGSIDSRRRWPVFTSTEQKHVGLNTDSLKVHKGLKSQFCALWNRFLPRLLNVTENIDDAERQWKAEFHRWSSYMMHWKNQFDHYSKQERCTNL

The target in assay [1] is T1, Acetylcholinesterase (Electrophorus electricus, UniProt O42275). The assay is described as follows: ChEBML_1686258. As for the experimental part:
(§1) Inhibition of Electric eel AChE using acetylthiocholine as substrate after 7 min by Ellman's method

Assay [2] concerns the target T1, Acetylcholinesterase. The assay is described as follows: Mixed type inhibition of Electric eel AChE assessed as inhibition constant using acetylthiocholine as substrate after 7 min by Ellman's method. On the technique in general: Ellman's reagent forms a yellow product with free thiols.
The target in assay [3] is T1, Acetylcholinesterase. The description is as §1.

As a reminder, the IC50 is the concentration needed to halve the response being measured. The low end stands for greater potency in that assay, the high end for weaker potency in that assay. As a reminder, the Ki is the dissociation constant of the complex between target and ligand, obtained from inhibition or displacement.

`COc1cc(CN(C)C)ccc1O` displayed an IC50 at Acetylcholinesterase [1] of 919 µM.

Regarding `COc1cc(CN2CCOCC2)ccc1O`, at Acetylcholinesterase [1], the half-inhibitory concentration (IC50) is 1830 µM. For the same compound, the Ki at Acetylcholinesterase [2] stood at 1570 µM.

On Acetylcholinesterase [3], `COc1cc(CN2CCCC2)ccc1O` returned a 50% inhibitory concentration (IC50) of 403 µM.

Turning to `COc1cc(CN2CCCCC2)ccc1O`, at Acetylcholinesterase [1], the IC50 worked out at 227 µM. In addition, on Acetylcholinesterase [2], the inhibition constant Ki is 106 µM.
